IC50 data for one compound are collected here from BindingDB's records for doi:10.1021/jm970815r (Eisai, 1998).

The nature of the assay: Inhibition of Phosphodiesterase 5 from porcine platelets.

What is called IC50 is the midpoint of a concentration-inhibition curve. Compound `COc1ccc(CNc2nnc(Cl)c3ccc(Cl)cc23)cc1Cl` [(3-Chloro-4-methoxy-benzyl)-(4,7-dichloro-phthalazin-1-yl)-amine] displayed an IC50 of 0.054 µM.
